This note sets out measurements from publication PMC3440873 (Bioorganic & medicinal chemistry letters, 2011).

The test system of the test is MDA-MB-231 breast adenocarcinoma cells.

Consider `CN[C@@H](C)C(=O)N[C@H](C(=O)N1CCC[C@H]1C(=O)Nc1cccc2ccccc12)C(C)C` [Compound 9h], for which the TRAIL sensitizing activity entry was “strong TRAIL sensitizing activity”.
